Experiment [1] is described as follows: qHTS assay to identify small molecule antagonists of the TGF-beta/Smad signaling pathway - cell viability counter screen (AID 1346824). Also: nearly all actives have a fitted effect of over 50% in size. The following applies: SBE-bla HEK293T viability, CellTiter-Glo luminescence. Summed up:
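SBE-bla HEK 293T cells, incubated overnight, then compound plus 0.25 ng/mL TGF-beta1 (stock added) for 5 hr at 37 C. Viability was read in the same wells by CellTiter-Glo luminescence after 30 min at room temperature.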
A general note: qHTS replaces the single test concentration by a dilution series.

Protein sequences, listed by entry. Tags and fused reporters are not part of them.
UniProt P34981, whole entry: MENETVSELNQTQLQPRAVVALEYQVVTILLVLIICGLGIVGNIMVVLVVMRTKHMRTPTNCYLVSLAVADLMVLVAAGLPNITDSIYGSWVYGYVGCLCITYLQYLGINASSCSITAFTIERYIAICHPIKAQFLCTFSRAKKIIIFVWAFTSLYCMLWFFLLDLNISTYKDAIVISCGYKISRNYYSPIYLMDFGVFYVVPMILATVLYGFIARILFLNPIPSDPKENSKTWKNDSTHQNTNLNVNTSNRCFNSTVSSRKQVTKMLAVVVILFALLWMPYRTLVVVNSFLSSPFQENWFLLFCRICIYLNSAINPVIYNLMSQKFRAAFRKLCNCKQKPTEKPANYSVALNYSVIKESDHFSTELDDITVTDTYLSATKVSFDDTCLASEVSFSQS
UniProt O75469, whole entry: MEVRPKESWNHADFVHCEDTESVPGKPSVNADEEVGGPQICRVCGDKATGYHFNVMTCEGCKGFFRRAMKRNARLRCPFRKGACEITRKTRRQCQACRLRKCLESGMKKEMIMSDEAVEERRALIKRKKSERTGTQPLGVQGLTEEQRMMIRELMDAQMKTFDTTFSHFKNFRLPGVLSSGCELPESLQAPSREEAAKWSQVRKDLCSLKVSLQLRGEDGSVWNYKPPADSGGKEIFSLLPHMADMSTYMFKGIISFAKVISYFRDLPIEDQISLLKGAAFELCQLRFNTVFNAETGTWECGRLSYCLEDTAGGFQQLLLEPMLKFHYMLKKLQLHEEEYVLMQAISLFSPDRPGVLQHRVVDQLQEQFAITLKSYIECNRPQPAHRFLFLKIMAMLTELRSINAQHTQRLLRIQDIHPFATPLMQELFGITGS
UniProt P33261, whole entry: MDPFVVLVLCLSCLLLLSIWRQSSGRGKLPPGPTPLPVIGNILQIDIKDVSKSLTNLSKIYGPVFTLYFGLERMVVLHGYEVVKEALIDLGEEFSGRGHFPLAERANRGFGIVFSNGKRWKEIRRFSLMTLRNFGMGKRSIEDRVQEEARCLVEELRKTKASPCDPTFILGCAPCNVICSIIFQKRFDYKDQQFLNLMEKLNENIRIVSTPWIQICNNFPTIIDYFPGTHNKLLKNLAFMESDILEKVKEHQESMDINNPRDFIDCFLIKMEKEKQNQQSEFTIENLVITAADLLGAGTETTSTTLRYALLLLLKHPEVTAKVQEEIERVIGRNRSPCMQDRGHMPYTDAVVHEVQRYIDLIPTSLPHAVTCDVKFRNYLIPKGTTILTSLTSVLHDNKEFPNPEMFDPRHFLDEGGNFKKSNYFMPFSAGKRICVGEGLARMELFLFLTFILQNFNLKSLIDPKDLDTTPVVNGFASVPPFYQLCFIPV
UniProt P05177, whole entry: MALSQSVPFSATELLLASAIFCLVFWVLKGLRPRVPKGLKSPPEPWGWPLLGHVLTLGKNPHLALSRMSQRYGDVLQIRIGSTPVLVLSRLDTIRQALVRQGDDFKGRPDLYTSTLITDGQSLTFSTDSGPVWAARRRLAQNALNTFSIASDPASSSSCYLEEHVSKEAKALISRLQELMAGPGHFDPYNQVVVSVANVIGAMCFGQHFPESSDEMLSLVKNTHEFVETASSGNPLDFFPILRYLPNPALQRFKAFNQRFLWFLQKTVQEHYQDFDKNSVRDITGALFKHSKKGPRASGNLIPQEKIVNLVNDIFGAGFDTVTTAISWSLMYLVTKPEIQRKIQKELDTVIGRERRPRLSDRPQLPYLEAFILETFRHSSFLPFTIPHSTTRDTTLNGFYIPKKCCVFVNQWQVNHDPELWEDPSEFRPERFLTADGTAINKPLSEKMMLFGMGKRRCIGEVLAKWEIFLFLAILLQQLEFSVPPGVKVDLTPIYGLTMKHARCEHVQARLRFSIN
UniProt Q12809, whole entry: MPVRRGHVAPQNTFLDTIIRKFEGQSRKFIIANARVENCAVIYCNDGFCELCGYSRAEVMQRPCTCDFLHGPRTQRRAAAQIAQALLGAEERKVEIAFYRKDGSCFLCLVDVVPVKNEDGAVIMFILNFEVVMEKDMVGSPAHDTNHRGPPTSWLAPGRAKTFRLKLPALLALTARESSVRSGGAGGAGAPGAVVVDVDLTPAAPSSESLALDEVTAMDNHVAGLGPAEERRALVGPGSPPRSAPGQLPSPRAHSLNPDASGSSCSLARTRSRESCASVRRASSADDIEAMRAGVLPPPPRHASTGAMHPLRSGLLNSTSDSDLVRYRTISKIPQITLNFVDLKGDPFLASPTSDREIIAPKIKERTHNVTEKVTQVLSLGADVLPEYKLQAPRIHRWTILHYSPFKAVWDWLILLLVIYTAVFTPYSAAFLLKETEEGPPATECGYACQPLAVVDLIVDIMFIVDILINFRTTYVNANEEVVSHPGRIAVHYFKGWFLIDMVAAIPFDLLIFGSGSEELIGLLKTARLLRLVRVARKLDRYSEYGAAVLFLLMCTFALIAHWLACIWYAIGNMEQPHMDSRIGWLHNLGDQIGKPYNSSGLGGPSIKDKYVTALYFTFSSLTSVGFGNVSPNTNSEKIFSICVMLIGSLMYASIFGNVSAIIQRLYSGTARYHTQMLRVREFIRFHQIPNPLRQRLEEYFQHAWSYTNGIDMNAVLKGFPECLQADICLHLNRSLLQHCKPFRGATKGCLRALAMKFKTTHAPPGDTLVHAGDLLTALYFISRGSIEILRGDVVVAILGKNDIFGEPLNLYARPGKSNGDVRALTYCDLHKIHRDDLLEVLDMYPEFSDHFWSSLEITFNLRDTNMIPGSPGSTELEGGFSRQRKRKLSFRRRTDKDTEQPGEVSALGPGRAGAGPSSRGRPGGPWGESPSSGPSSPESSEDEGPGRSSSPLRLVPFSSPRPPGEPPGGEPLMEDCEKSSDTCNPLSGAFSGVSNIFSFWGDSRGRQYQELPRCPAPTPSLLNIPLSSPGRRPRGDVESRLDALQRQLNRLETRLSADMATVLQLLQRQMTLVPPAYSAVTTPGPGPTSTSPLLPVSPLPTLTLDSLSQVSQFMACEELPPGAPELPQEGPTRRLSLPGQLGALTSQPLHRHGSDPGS
UniProt P08684, whole entry: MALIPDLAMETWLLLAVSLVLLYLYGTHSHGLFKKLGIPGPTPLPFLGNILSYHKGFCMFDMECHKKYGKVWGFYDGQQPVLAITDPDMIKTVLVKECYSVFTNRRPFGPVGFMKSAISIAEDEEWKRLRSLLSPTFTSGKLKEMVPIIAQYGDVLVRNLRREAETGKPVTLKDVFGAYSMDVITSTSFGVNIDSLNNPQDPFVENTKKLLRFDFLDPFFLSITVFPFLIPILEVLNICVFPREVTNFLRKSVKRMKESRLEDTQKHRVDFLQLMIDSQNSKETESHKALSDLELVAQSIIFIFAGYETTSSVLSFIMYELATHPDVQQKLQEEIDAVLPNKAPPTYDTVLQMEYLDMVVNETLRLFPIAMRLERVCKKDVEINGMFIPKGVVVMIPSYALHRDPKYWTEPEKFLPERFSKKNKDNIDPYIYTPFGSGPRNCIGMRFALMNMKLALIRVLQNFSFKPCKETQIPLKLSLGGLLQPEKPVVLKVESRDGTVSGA
UniProt P11712, whole entry: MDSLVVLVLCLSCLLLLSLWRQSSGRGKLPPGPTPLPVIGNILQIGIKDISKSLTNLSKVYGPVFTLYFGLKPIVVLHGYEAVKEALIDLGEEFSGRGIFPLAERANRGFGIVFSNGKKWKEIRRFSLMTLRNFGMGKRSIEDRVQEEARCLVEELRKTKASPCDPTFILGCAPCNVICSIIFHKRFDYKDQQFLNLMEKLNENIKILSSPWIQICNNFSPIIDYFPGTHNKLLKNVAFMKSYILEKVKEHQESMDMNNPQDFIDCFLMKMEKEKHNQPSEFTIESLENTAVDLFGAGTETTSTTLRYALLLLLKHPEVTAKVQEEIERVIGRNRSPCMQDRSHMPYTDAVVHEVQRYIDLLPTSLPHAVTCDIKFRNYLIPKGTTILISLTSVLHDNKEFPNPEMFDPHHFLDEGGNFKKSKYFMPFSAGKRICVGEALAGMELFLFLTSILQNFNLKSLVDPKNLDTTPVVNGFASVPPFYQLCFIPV

The nature of experiment [2]: qHTS assay to identify small molecule agonists of the TGF-beta/Smad signaling pathway - cell viability counter screen (AID 1346829). Also: top concentration of the series differs between compounds; nearly all actives have a fitted effect of over 45% in size. The conditions noted are these: SBE-bla HEK293T viability, CellTiter-Glo luminescence, 5 h. In short, it runs like this: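 Compound-treated SBE-bla HEK 293T cells (5 hr, 37 C) were assessed for viability with CellTiter-Glo in parallel with the reporter read.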

Experiment [3] in a line: qHTS assay to identify small molecule agonists of the TGF-beta/Smad signaling pathway (AID 1346859; active = well fitted activation curve with a large enough effect in the signal ratio in the repeat runs, not every such curve was filed as active; the % refers to the signal ratio). The conditions noted are these: SBE-bla HEK293T, TGF-beta/Smad beta-lactamase reporter, 5 h. Summed up:
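HEK 293T cells stably carrying a beta-lactamase reporter driven by the Smad binding element were seeded overnight, exposed to DMSO-dissolved compounds for 5 hr at 37 C, 5% CO2, then loaded with FRET substrate for 2 hr at room temperature.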

For experiment [4], the target named is Thyrotropin-releasing hormone receptor (Homo sapiens) (UniProt P34981). Nature of the experiment: qHTS assay to identify small molecule antagonists of the thyrotropin-releasing hormone receptor (TRHR) signaling pathway (AID 1346877; active = well fitted inhibition curve with a large enough effect in the repeat runs, not every such curve was filed as active; also: potency is read from the fitted curve at half-maximal effect).
The target is the same in experiment [5]. Put plainly: qHTS assay to identify small molecule agonists of the thyrotropin-releasing hormone receptor (TRHR) signaling pathway (AID 1346891; calls by dose curve;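 also: HEK293 cells expressing TRHR with calcium dye readout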). The conditions noted are these: TRHR-HEK293 calcium fluorescence, agonist mode.
A short description of experiment [6]: Human pregnane X receptor (PXR) small molecule agonists, qHTS cell viability counter screen (AID 1346977). Also: nearly all actives have a fitted effect of over 50% in size. In short, it runs like this: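 PXR-Luc HepG2 cells in medium with 5% charcoal-stripped FBS were pre-incubated 5hr, then exposed to compounds for 24hr at 37C. Viability was read in the same wells by CellTiter-Fluor fluorescence, reagent added after 23hr with a 1hr incubation.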

Experiment [7] can be described thus: Caspase-3/7 induction in HepG2 cells by small molecules, qHTS assay (AID 1346978). Also: nearly all actives have a fitted effect of over 15% in size. The following applies: HepG2 caspase-3/7 activation, Caspase-Glo luminescence, 17 h. Summed up: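 Wild-type HepG2 cells, 2,000/well, settled 5 hr at 37 C and 5% CO2, then compound-treated for 17 hr; caspase-3/7 activity read by luminescent Caspase-Glo 3/7 after 30 min at room temperature.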

Experiment [8] in a line: Caspase-3/7 induction in HepG2 cells by small molecules, qHTS cell viability counter screen (AID 1346981). Also: nearly all actives have a fitted effect of over 30% in size. The conditions noted are these: CellTiter-Fluor fluorescence, 17 h. Summed up: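 Cell viability is measured as a cytotoxicity counter screen alongside the Caspase-Glo 3/7 readout in identical wells. Wild-type HepG2 cells are treated with test compounds for 16 hr at 37 C before CellTiter-Fluor addition and a 1-hr incubation.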

In experiment [9] the target is Nuclear receptor subfamily 1 group I member 2 (Homo sapiens) (UniProt O75469). Put plainly: Human pregnane X receptor (PXR) small molecule agonists, qHTS assay (AID 1346982). Also: nearly all actives have a fitted effect of over 35% in size. In short, it runs like this: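 Cells: HepG2 stably carrying PXR-Luc. Medium held 5% charcoal-stripped FBS. Compounds in DMSO added after 5 hr plating, incubated 24 hr, then luminescence quantified with ONE-Glo.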

Experiment [10] concerns the target Cytochrome P450 2C19 (Homo sapiens) (UniProt P33261). Put plainly: Cytochrome P450 Family 2 Subfamily C Member 19 (CYP2C19) small molecule antagonists: luciferase reporter qHTS assay (AID 1671197). Also: nearly all actives have a fitted effect of over 65% in size. Also: potency is read from the fitted curve at half-maximal effect. In short, it runs like this:
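P450-Glo CYP2C19 screening system; proluciferin substrate; DMSO compound stocks; 10 min RT preincubation; NADPH regeneration, 1 h at 37C; luciferin detection reagent, 20 min RT; luminescence as RLU.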
In general terms: Reporter assays use an easily measured gene product as a stand-in for the process of interest.

Experiment [11] addresses Cytochrome P450 1A2 (Homo sapiens) (UniProt P05177). Nature of the experiment: Cytochrome P450 Family 1 Subfamily A Member 2 (CYP1A2) small molecule antagonists: luciferase reporter qHTS assay (AID 1671199). Also: nearly all actives have a fitted effect of over 50% in size. Also: potency is read from the fitted curve at half-maximal effect.
The target in experiment [12] is Voltage-gated inwardly rectifying potassium channel KCNH2 (Homo sapiens) (UniProt Q12809). Put plainly: Human Ether-a-go-go-Related Gene (hERG) channel small molecule antagonists: fluorescence cell-based qHTS assay (AID 1671200).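 Also: hERG-expressing U2OS cells given a thallium stimulus after FluxOR II dye loading; nearly all actives have a fitted effect of over 50% in size.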 In short, it runs like this: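 U2OS cells expressing the channel were plated at 1000 cells/well, incubated overnight at 37 C, then loaded with FluxOR II thallium-sensitive dye for 1 h at room temperature in the dark, with a further 10 min at room temperature before stimulation.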
A general note: hERG is a cardiac potassium channel; its block is linked to QT prolongation.

In experiment [13] the target is Cytochrome P450 3A4 (Homo sapiens) (UniProt P08684). Nature of the experiment: Cytochrome P450 Family 3 Subfamily A Member 4 (CYP3A4) small molecule antagonists: luciferase reporter qHTS assay (AID 1671201). Also: nearly all actives have a fitted effect of over 50% in size. Summed up: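 P450-Glo CYP3A4 system with proluciferin substrate; compounds preincubated 10 min RT with enzyme-substrate mix, then NADPH regeneration added for 1 h RT. Detection reagent 20 min, luminescence read as relative luminescence units.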

Experiment [14] deals with Cytochrome P450 2C9 (Homo sapiens) (UniProt P11712). Put plainly: Cytochrome P450 Family 2 Subfamily C Member 9 (CYP2C9) small molecule antagonists: luciferase reporter qHTS assay (AID 1671198). Also: nearly all actives have a fitted effect of over 50% in size. Also: potency is read from the fitted curve at half-maximal effect. Summed up: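 P450-Glo proluciferin substrate with CYP2C9 enzyme; 10 min RT preincubation, then NADPH regeneration 1 h at 37C; luciferin detection reagent 20 min RT, luminescence in relative luminescence units.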

Where [15] appears, read: at 76.8 µM (top of the series) unless noted.
The mark [16] stands for this setting: at 92.4 µM (top of the series) unless noted.

Values joined by “and” are separate entries in the source; they are usually repeats but may differ in a detail not shown here. Equal values may be shown once. The list shows a part of the results, in another mix than the full data. Records with an inconclusive call do not appear. Some structures have more than one record in an assay (separate samples or runs), and their calls can disagree. Active and inactive are the calls of the source. Unless noted, calls follow the shape of the dose curve; as a rule, active = well fitted curve in the direction sought with a large enough effect in the repeat runs; inconclusive = weak or mixed curves; inactive = no such curve, though single readings can be large; an effect the other way counts as inactive or inconclusive.
% is scaled to controls: 0 for no effect and ±100 for the full control effect.

On to `[NH4+].[O-][Cl+3]([O-])([O-])[O-]`, for which the viability change, negative = cytotoxic in [1] (setting [15]) was inactive: -0.748% and inactive: 6.65%. Moreover, the activity change, negative = cytotoxicity in experiment [2] (setting [15]) was inactive: -1.41% and inactive: -6.51%; in experiment [8] (at 92.4 µM (top of the series)), inactive: 6.98%. Moreover, the activation in experiment [3] (setting [15]) is inactive: -5.99% and inactive: 4.54%; in experiment [5] (at 57.6 µM (top of the series)), inactive: -0.202% and inactive: 0.0258%. The Potency result in experiment [4], in [6], in experiment [9], in experiment [11], in experiment [12] and in experiment [13] was “inactive” in each case. Also, the caspase activation in experiment [7] (setting [16]) is inactive: -0.0303% and inactive: 0.064%. In addition, the Potency entry in experiment [10] is “inactive and active: 39.9 µM”.
Take `Cc1ccc([N+](=O)[O-])c([N+](=O)[O-])c1`: the viability change, negative = cytotoxic in [1] (setting [15]) is inactive: 3.92% and inactive: 8.06%. For the same molecule, the activity change, negative = cytotoxicity in experiment [2] (setting [15]) is inactive: -6.11% and inactive: -2.14%; in experiment [8] (at 92.4 µM (top of the series)), inactive: -4.49%. Besides, the Potency entry in [4] is “inactive and active: 15.1 µM”; in experiment [10], active: 40.8 µM; in [11], active: 28.9 µM and active: 28.3 µM. Further, the Potency result in experiment [6], in [9], in experiment [14], in [12] and in experiment [13] was “inactive” throughout. Also, the caspase activation in experiment [7] (setting [16]) was inactive: -3.09% and inactive: 0.131%.
In the case of `OCCSCCO`, the viability change, negative = cytotoxic in experiment [1] (at 35.3 µM (top of the series)) is inactive: 0.114%; in [1] (at 76.8 µM (top of the series)), inactive: 4.25%. Further, the activity change, negative = cytotoxicity in [2] (at 35.3 µM (top of the series)) is inactive: -2.27%; in [2] (at 76.8 µM (top of the series)), inactive: -3.9%; in experiment [8] (at 42.5 µM (top of the series)), inactive: 0.292%; in experiment [8] (at 92.4 µM (top of the series)) it was inactive: -0.166%. Further, the activation in experiment [3] (at 35.3 µM (top of the series)) was inactive: 1.91%; in experiment [3] (at 76.8 µM (top of the series)), inactive: 0.783%; in experiment [5] (at 26.5 µM (top of the series)) it was inactive: -0.662%; in experiment [5] (at 57.6 µM (top of the series)) it was inactive: 0.0189%. Further, the Potency entry in experiment [4], in experiment [6], in experiment [9], in [11], in [12] and in [13] was “inactive” each time. The caspase activation in experiment [7] (at 42.5 µM (top of the series)) is inactive: 1.37%; in experiment [7] (at 92.4 µM (top of the series)), inactive: -0.413%. The Potency in experiment [10] is active: 22.8 µM and inactive; in [14] it was active: 36.2 µM and inactive.
With `N=C(N)N[N+](=O)[O-]`, the viability change, negative = cytotoxic in experiment [1] (setting [15]) is inactive: 2.46%. Further, the activity change, negative = cytotoxicity in experiment [2] (setting [15]) is inactive: -14.9%; in experiment [8] (at 92.4 µM (top of the series)) it was inactive: -0.0314%. Besides, the activation in experiment [3] (setting [15]) is inactive: -0.418%; in experiment [5] (at 57.6 µM (top of the series)) it was inactive: -0.278%. The Potency result in experiment [4], in experiment [6], in experiment [9], in experiment [14], in experiment [11] and in experiment [12] was “inactive” throughout. In addition, the Potency entry in [13] was “inactive”. Further, the caspase activation in [7] (setting [16]) is inactive: 0.43%. Besides, the Potency in experiment [10] was active: 88 µM.
As to `CP(=O)(O)OCCC[Si](O)(O)O`, the viability change, negative = cytotoxic in experiment [1] (setting [15]) is inactive: -6.6%. The values for the activity change, negative = cytotoxicity in experiment [2] (setting [15]) and in experiment [8] (at 92.4 µM (top of the series)) were inactive: 5.73% and inactive: -1.29%, respectively. Further, the activation in [3] (setting [15]) was inactive: -0.971%. Moreover, the Potency entry in experiment [6], in [9], in [10], in experiment [14], in experiment [11] and in [12] was “inactive” in each case. In addition, the Potency entry in experiment [13] is “inactive”. Also, the caspase activation in experiment [7] (setting [16]) is inactive: -0.951%.
